Laboratory results: US20260384433A1, “PYRIDAZINE FUSED ARYL RING COMPOUND AND USE THEREOF” (published 2026)

How the values were obtained:
[1] = system: J774A.1 cells; experiment: Anti-pyroptosis activity assay in J774A.1 cells (nigericin-induced, CCK-8); conditions: read-out: EC50 (anti-pyroptosis activity), nigericin 4 h
[2] = system: human IL-1β; experiment: In-vitro THP-1 cell (IL-1β) expression assay; conditions: THP-1 cells, LPS 100 ng/mL, nigericin

Compound: C#Cc1ccc(-c2nnc(NC3CCCN(C)C3)c3cccn23)c(O)c1 (stereo not shown)
- EC50 [1]: < 100 nM
- % inhibition of IL-1β expression ([2]; compound 1 nM): A (% inhibition≥50)
- % inhibition of IL-1β expression ([2]; compound 10 nM): A (% inhibition≥50)
- % inhibition of IL-1β expression ([2]; compound 100 nM): A (% inhibition≥50)

Compound: CN1CCC[C@@H](Nc2nnc(-c3ccc(C(F)(F)F)cc3O)c3c4c(cn23)CCC4)C1
- EC50 [1]: 100 to 1000 nM
- % inhibition of IL-1β expression ([2]; compound 1 nM): B (10≤% inhibition<50)
- % inhibition of IL-1β expression ([2]; compound 10 nM): B (10≤% inhibition<50)
- % inhibition of IL-1β expression ([2]; compound 100 nM): A (% inhibition≥50)

Compound: CN1CCC[C@@H](Nc2nnc(-c3ccc(C(F)(F)F)cc3O)n3cccc23)C1
- EC50 [1]: < 100 nM
- % inhibition of IL-1β expression ([2]; compound 1 nM): A (% inhibition≥50)
- % inhibition of IL-1β expression ([2]; compound 10 nM): A (% inhibition≥50)

Compound: C[C@]1(O)C[C@@H](Nc2nnc(-c3ccc(C(F)(F)F)cc3O)n3cccc23)C1
- EC50 [1]: 100 to 1000 nM

Compound: CN1CCC[C@@H](Nc2nnc(-c3ccc(C(F)(F)F)cc3O)c3cc4sccc4n23)C1
- EC50 [1]: < 100 nM
- % inhibition of IL-1β expression ([2]; compound 1 nM): B (10≤% inhibition<50)
- % inhibition of IL-1β expression ([2]; compound 10 nM): B (10≤% inhibition<50)
- % inhibition of IL-1β expression ([2]; compound 100 nM): A (% inhibition≥50)

Compound: CN1CCC[C@@H](Nc2nnc(-c3ccc(C(F)(F)F)cc3O)c3cc4c(n23)CCC4)C1
- EC50 [1]: 100 to 1000 nM
- % inhibition of IL-1β expression ([2]; compound 1 nM): B (10≤% inhibition<50)
- % inhibition of IL-1β expression ([2]; compound 10 nM): B (10≤% inhibition<50)
- % inhibition of IL-1β expression ([2]; compound 100 nM): A (% inhibition≥50)

Compound: CN1CCC[C@@H](Nc2nnc(-c3ccc(Cl)cc3O)n3cccc23)C1
- EC50 [1]: < 100 nM

Compound: Oc1cc(C(F)(F)F)ccc1-c1nnc(N[C@@H]2CCCC[C@H]2O)c2c3c(cn12)CCC3
- EC50 [1]: < 100 nM

Compound: CN1CCC[C@@H](Nc2nnc(-c3ccc(C(F)(F)F)cc3O)n3c2cc2sccc23)C1
- EC50 [1]: 100 to 1000 nM
- % inhibition of IL-1β expression ([2]; compound 1 nM): B (10≤% inhibition<50)
- % inhibition of IL-1β expression ([2]; compound 10 nM): B (10≤% inhibition<50)
- % inhibition of IL-1β expression ([2]; compound 100 nM): A (% inhibition≥50)

Compound: CS(=O)(=O)N1CCC[C@@H](Nc2nnc(-c3ccc(C(F)(F)F)cc3O)n3cccc23)C1
- EC50 [1]: 100 to 1000 nM

Compound: Oc1cc(C(F)(F)F)ccc1-c1nnc(N[C@@H]2COC[C@@H]2O)c2c3c(cn12)CCC3
- EC50 [1]: 100 to 1000 nM

Compound: CN1CCC[C@@H](Nc2nnc(-c3ccc(C(F)(F)F)cc3O)n3cc4c(c23)CCC4)C1
- EC50 [1]: < 100 nM
- % inhibition of IL-1β expression ([2]; compound 1 nM): B (10≤% inhibition<50)
- % inhibition of IL-1β expression ([2]; compound 10 nM): A (% inhibition≥50)
- % inhibition of IL-1β expression ([2]; compound 100 nM): A (% inhibition≥50)

Compound: CS(=N)(=O)N1CCC[C@@H](Nc2nnc(-c3ccc(C(F)(F)F)cc3O)n3cccc23)C1 (stereo partly shown)
- EC50 [1]: 100 to 1000 nM

Compound: Oc1cc(Cl)ccc1-c1nnc(N[C@@H]2COC[C@H]2O)c2c3c(cn12)CCC3
- EC50 [1]: 100 to 1000 nM

Compound: NS(=O)(=O)N1CCC[C@@H](Nc2nnc(-c3ccc(C(F)(F)F)cc3O)n3cccc23)C1
- EC50 [1]: < 100 nM

Compound: Oc1cc(C(F)(F)F)ccc1-c1nnc(N[C@@H]2COC[C@H]2O)c2c3c(cn12)CCC3
- EC50 [1]: 100 to 1000 nM

Compound: O=S(=O)(C1CC1)N1CCC[C@@H](Nc2nnc(-c3ccc(C(F)(F)F)cc3O)n3cccc23)C1
- EC50 [1]: 100 to 1000 nM

Compound: C=Cc1ccc(-c2nnc(N[C@@H]3CCCN(C)C3)c3cccn23)c(O)c1
- % inhibition of IL-1β expression ([2]; compound 1 nM): A (% inhibition≥50)
- % inhibition of IL-1β expression ([2]; compound 10 nM): A (% inhibition≥50)
- % inhibition of IL-1β expression ([2]; compound 100 nM): A (% inhibition≥50)
